In US20260240772A1 (priority 2022, published 2026):

Test system: mice with neuropathic pain
Settings: tail intravenous injection 5 mg kg^−1 (FIG. 8) or subcutaneous injection 10 mg kg^−1 (FIG. 9); 0.4 g von Frey filament

CN1CC[C@]23c4c5ccc(O)c4O[C@H]2[C@@H](O)C=C[C@H]3[C@H]1C5 [morphine single drug, morphine]
time of obvious analgesic effect after administration (reduced foot withdrawal frequency vs solvent group): ≤ 2 h
